This passage reports B-score results from PubChem BioAssay AID1918 (Vanderbilt High Throughput Screening Facility, 2009).

Sequences of proteins named here, by UniProt entry; tags and fusion partners are left off.
UniProt P48048, whole entry: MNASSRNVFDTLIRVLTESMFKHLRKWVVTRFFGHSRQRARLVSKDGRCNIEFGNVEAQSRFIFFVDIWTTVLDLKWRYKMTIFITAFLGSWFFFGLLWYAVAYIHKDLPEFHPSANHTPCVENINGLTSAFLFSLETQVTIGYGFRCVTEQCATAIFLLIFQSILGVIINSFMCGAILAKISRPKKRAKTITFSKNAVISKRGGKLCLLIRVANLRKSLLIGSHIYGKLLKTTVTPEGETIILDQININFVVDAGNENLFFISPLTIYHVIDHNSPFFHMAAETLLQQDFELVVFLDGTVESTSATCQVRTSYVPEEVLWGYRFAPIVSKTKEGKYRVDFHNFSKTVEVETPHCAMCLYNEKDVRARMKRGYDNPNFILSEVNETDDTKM

The entries are a selection whose mix differs from that of the whole data set. Some results for these compounds are left out of this collection, so the calls shown say nothing about other tests. Active and inactive are the calls of the source.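 The calls were made as follows: active = signal ratio slope over the read window, or its plate-corrected B-score, at least 3 SD from the plate mean, either direction; inactive = the rest.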

In this assay the target is ATP-sensitive inward rectifier potassium channel 1 (Homo sapiens) (UniProt P48048). Kind of assay: ROMK potassium channel modulators, primary screen, cell-based, thallium flux, MLSMR library (AID 1918).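 Also: B-score of the F/F0 ratio slope over 7 to 12 s after thallium.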 As to conditions: Tet-inducible ROMK, thallium flux fluorescence; at 10 µM; actives lie on both sides.
For the compound `C=CCN1CCN(CCOC(=O)C(O)(c2ccccc2)c2ccccc2)CC1`, the B-score was inactive: 0.262. With `CCN1CCCC(OC(=O)C2(O)c3ccccc3C=Cc3ccccc32)C1` (stereo not drawn), the B-score is inactive: -0.765.

On to `Cc1ccccc1C(=O)NCC1(N2CCCCC2)CCCCC1`, for which the B-score is inactive: -0.112. In the case of `CN(C)C1CCCC1OC(=O)C(O)(c1ccccc1)c1ccccc1` (stereo not drawn), the B-score was inactive: 0.0128. Take `CCN(CC)CC(C)C(C)OC(=O)C(O)(c1ccccc1)c1ccccc1` (stereo not drawn): the B-score is inactive: -0.638.

In the case of `O=C(NCC1(N2CCCCC2)CCCCC1)c1cc([N+](=O)[O-])ccc1Cl`, the B-score is inactive: -0.474. Turning to `CN(C)c1cccc(C(=O)NCC2(N(C)C)CCCCC2)c1`, the B-score was inactive: -0.793. As for `COc1cccc(C(=O)NCC2(N3CCCCC3)CCCCC2)c1`, the B-score is inactive: 0.259.
